Laboratory results: patent publication US4598081A, “1,3-dioxo-1H-benz(de)isoquinoline-2(3H) butyric acid, pharmacologically acceptable salts thereof and compositions containing the same for treatment of diabetes mellitus complications” (Nauchno-Issledovatelsky Institut Endokrinologii I Obmena …, priority 1985, dated 1986)

Tests used:
[1] = test system: White mice; assay: acute ("high") toxicity, peroral, white mice
Method: (§1) Mature animals both male and female, weighting 18 to 22 g (white mice), 180 to 220 g (rats), 11 to 15 kg (dogs) were used for said experiments.
(§2) The drug was introduced in the form of a starch suspension through a gastric tube.
(§3) Each dose being examined was tested on 5-6 animals.
(§4) LD50 determined by the Lichfield and Wilcoxon method, or the Van der Waerden method was used as an index of high toxicity. The animals were kept under observation for 5 days.

[2] = test system: Rats; assay: acute ("high") toxicity, peroral, rats
Method: as §1, §2, §3, §4

[3] = test system: Dogs; assay: acute ("high") toxicity, peroral, dogs
Method: as §1, §2, §3, §4

[4] = test system: white mice, rats, and dogs; assay: acute ("high") toxicity, symptoms and overall assessment in mice, rats and dogs; conditions: peroral
Method: as §1, §2, §3, §4

[5] = test system: rats, rabbits, and dogs; assay: chronic toxicity, 6 months peroral, observations on rats, rabbits and dogs together; conditions: 50 and 100 mg per kg peroral, five times in a week
Method: The experiments were performed on rats, rabbits, and dogs.
In addition, the action of the proposed drug on the carbohydrate and uropoiesis functions of the liver was also examined.
The above indices were examined at the beginning of the experiment and then after 1, 2, 3, 4, 5, and 6 months.
At the end of the experiments there were carried out pathomorphological examinations of the lungs, heart, liver, kidneys, adrenal glands, spleen, lymph nodes, intestine, stomach, pancreas, and thyroid glands.
On completion of the experiment (six months) the experimental animals were killed: the dogs were killed with thiopental, the rabbits with aeroembolism, and the rats with diethyl ether. Thereafter, the lungs, heart, liver, kidneys, adrenal glands, spleen, lymph nodes, intestine, pancreas and thyroid gland of the killed animals were examined. The material thus obtained was fixed in formole. There were prepared paraffin sections which were then stained with hematoxylin and eosin.

With `O=C(O)CCCN1C(=O)c2cccc3cccc(c23)C1=O` [1,3-dioxo-1H-benz(de)isoquinoline-2(3H)butyric acid] as the compound, how does the “range of lethal concentrations” value [1] read?
The value was 3.4.

And the “range of lethal concentrations” value [2]?
The value was 2.36.

What about the “range of lethal concentrations” value [3] of the same compound?
Its value is 2.88.

And the “symptoms of the acute lethal poisoning” value [4]?
Its value is “flaccidity, hypodynamia, and lower respiration rhythm”.

And the “lethal cases among the experimental animals” value [5]?
Its value is “no lethal cases”.
